Measurements reported in PubChem BioAssay AID493011 (Sanford-Burnham Center for Chemical Genomics, 2011).
The list shows a part of the results, in another mix than the full data. The source made the active and inactive calls.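 The calls were made as follows: active = at least 40% inhibition at 20 µM here, with at most 30% in a related deaminase screen; inactive = the rest.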

Amino acid sequences for entries named in this document (tags omitted). A change or cut given only in a name is not applied to a line headed by its entry.
UniProt P31941: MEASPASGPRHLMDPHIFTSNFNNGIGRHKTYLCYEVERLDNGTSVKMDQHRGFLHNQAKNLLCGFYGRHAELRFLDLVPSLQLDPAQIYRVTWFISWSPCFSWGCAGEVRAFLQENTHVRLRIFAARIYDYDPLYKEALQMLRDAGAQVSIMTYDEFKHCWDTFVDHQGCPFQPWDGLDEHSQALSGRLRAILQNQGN

Target: DNA dC->dU-editing enzyme APOBEC-3A (Homo sapiens) (UniProt P31941)
Experiment: APOBEC3A ssDNA deaminase inhibitors, primary screen, selectivity assay for APOBEC3G inhibitor project, biochemical, FAM/TAMRA oligo cleavage fluorescence (AID 493011);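 also: plate controls were A3A with DMSO for no effect and wells lacking A3A enzyme for full effect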
Conditions: recombinant A3A, FAM/TAMRA ssDNA deamination fluorescence; at 20 µM; hits give high values

| SMILES | inhibition |
| --- | --- |
| CN(C)C(=O)OCCc1n(C)cc[n+]1C | inactive: -4.24% |
| CC1CCN(C(=O)Oc2c(Cl)cc(Cl)c3cccnc23)CC1 | inactive: 1.19% |
| Nc1ccc([As](=O)(O)c2ccc(N)cc2)cc1 | inactive: 3.01% |
| C[N+]1=C2C=CC=CC=C2SC12C([N+](=O)[O-])=CC([N+](=O)[O-])=C[C-]2[N+](=O)[O-] (configuration not stated) | inactive: 65.4% |
| CCN(/C(=N/P(=O)(N1CCOCC1)N1CCOCC1)N1CCOCC1)c1ccc(OC)cc1 | inactive: 0.341% |
| O=[N+]([O-])c1cccc2n[nH]nc12 | inactive: -2.78% |
| CC(=O)N1C2C3N(C(C)=O)C1C1N(C(C)=O)C(C(N1C(C)=O)N3C(C)=O)N2C(C)=O | inactive: -2.69% |
| Cc1ccc(NP(=O)(Oc2ccccc2)Oc2ccccc2)nc1 | inactive: -6.23% |
| CCc1nc2c(n1)c1c(non1O)c1c2no[n+]1[O-] | inactive: -5.16% |
| O=[N+]([O-])c1cc([N+](=O)[O-])c(CCNc2ccccc2)c([N+](=O)[O-])c1 | inactive: 4.38% |
| COc1ccc(C2=NCC(CBr)S2)cc1 (configuration not stated) | inactive: 2.3% |
| c1nnnn1CCn1cnnn1 | inactive: 6.11% |
| CC(C)C(=O)NC(Sc1ccccc1)C(Cl)(Cl)Cl (configuration not stated) | inactive: -0.492% |
| O=P(Nc1nccs1)(c1ccccc1)c1ccccc1 | inactive: 4.22% |
| C(Cc1nn[nH]n1)Cc1nn[nH]n1 | inactive: 1.31% |
| O=C(OC1CN2CCC1CC2)c1cccc(Cl)c1 (configuration not stated) | inactive: 0.475% |
| O=[N+]([O-])c1ncn(CCn2cnc([N+](=O)[O-])n2)n1 | inactive: 4.2% |
| O=P(Nc1nc2ccccc2s1)(c1ccccc1)c1ccccc1 | inactive: 2.52% |
| C[C@H]1OP(=O)(Oc2ccccc2)[C@H](O)[C@H](O)[C@H]1N=[N+]=[N-] (some centres not stated) | inactive: 1.64% |
| O=P(Nc1ccccn1)(c1ccc(Br)cc1)c1ccc(Br)cc1 | inactive: 0.363% |
| CN(C)C1(CNC(=O)c2ccc(Cl)c(S(N)(=O)=O)c2)CCCCC1 | inactive: -1.69% |

| SMILES | inhibition |
| --- | --- |
| Cc1ccccc1OP(=O)(Nc1ccccn1)Oc1ccccc1C | inactive: 0.568% |
| CC(NC(=O)COC(=O)C(O)(c1ccccc1)c1ccccc1)c1ccccc1 (configuration not stated) | inactive: 6.05% |
| CN(C)C(=O)Oc1noc2ccccc12 | inactive: 5.62% |
| COC(=O)c1cc2c(s1)N=C(c1ccccc1)N(C)P2(=O)N1CCOCC1 (configuration not stated) | inactive: -2.81% |
| CC(=O)NC(SC(=S)N(CC(C)C)CC(C)C)C(Cl)(Cl)Cl (configuration not stated) | inactive: -6.15% |
| O=C(OC1CN2CCC1CC2)c1ccccc1 (configuration not stated) | inactive: -4.93% |
| CCC(=O)N1C2C3N(C(=O)CC)C1C1N(C(=O)CC)C(C(N1C(=O)CC)N3C(=O)CC)N2C(=O)CC | inactive: 5.6% |
| CCNC(=S)/N=C(\N)N[N+](=O)[O-] | inactive: -5.4% |
| O=C(NC1CCS(=O)(=O)C1)NP(=S)(Oc1ccccc1)Oc1ccccc1 (configuration not stated) | inactive: 2.43% |
| c1ccc(-c2nn[nH]n2)c(-c2nn[nH]n2)c1 | inactive: -1.74% |
| Cc1ccc(NP(=O)(Oc2cccc(C)c2)Oc2cccc(C)c2)nc1 | inactive: -3.94% |
| CCOC(=O)NC(Sc1ccccc1)C(Cl)(Cl)Cl (configuration not stated) | inactive: -0.655% |
| CC(=O)Nc1ccc([As](=O)(O)O)c(O)c1 | inactive: -5.3% |
| CC(=O)Nc1ccc(Oc2c([N+](=O)[O-])cc([N+](=O)[O-])cc2[N+](=O)[O-])cc1 | inactive: -1.14% |
| CC(=O)c1ccc(N2CC2c2ccncc2)cc1 (configuration not stated) | inactive: 0.084% |
| Cc1ccccc1CN(C)C(=O)COC(=O)C(O)(c1ccccc1)c1ccccc1 | inactive: -0.979% |
| C[C@@H]1C=CCP(=O)(Oc2ccccc2)O1 (some centres not stated) | inactive: -1.27% |
| C[C@H]1OP(=O)(Oc2ccccc2)C[C@@H]2O[C@@H]21 (some centres not stated) | inactive: -1.26% |
| CC(C)(C)C(=O)NC(Sc1ccccc1)C(Cl)(Cl)Cl (configuration not stated) | inactive: 2.96% |
| O=P1(Nc2nc3ccc(Cl)cc3s2)COc2ccccc2O1 (configuration not stated) | inactive: -1.16% |
| CCOc1ccc(C2=NCC(CBr)S2)cc1 (configuration not stated) | inactive: -0.862% |
